Source: US11958812B2, “3, 5-disubstituted pyridine and 3, 5-disubstituted pyridazine derivatives and pharmaceutical use of same” (MITSUBISHI TANABE PHARMA CORPORATION, priority 2018, dated 2024)

biological target: human recombinant ATX (Homo sapiens, UniProt Q13822); assay: Enzyme inhibition test (choline release from LPC, Amplex UltraRed fluorescence); details: read-out: Experimental Example 1 human ATX IC50, 200 μM LPC substrate, 1 hr at room temperature
Procedure: [Enzyme Inhibition Test Method]
A mixture (10 μL) of substrate and a set of choline quantification reagents (200 μM LPC (1-Oleoyl-sn-glycero-3-phosphocholine Sigma #L1881), 25 μM Amplex UltraRed reagent (Invitrogen), 0.1 U/mL Peroxidase (TOYOBO), 1 U/mL Choline oxidase (TOYOBO)), prepared with assay buffer (50 mM Tris (pH 8.0), 140 mM NaCl, 5 mM KCl, 1 mM CaCl2, 1 mM MgCl2, 0.1% BSA (Albumin from bovine serum, SIGMA), 0.0025% Triton X-100), enzyme (0.4 ng/μL human recombinant ATX) (10 μL), compound-containing solution (100 nL) were dispensed to a 384-well plate, incubated at room temperature for 1 hr and the fluorescence (Ex. 525 nm/Em. 598 nm) was measured. As the standard, choline chloride was used. With a blank free of enzyme was taken as inhibitory rate 100%, and a control free of inhibitor as inhibitory rate 0%, the inhibitory rate was calculated, and IC50 value was calculated from the inhibitory activity percentage at each concentration.

Compound | IC50
O=C(O)CCC1CN(c2cncc(CCc3ccc(OC(F)(F)F)cc3)c2)CCO1 (centres unmarked) | 1040 nM
O=C(O)C1CC1C1CN(c2cncc(OC[C@H]3CC[C@H](C(F)(F)F)CC3)c2)CCO1 (single isomer, unassigned) [Example 19-1] | 1 nM
O=C(O)C1CC1C1CN(c2cncc(OC[C@H]3CC[C@H](C(F)(F)F)CC3)c2)CCO1 (single isomer, unassigned) [Example 19-2] | 31 nM
O=C(O)C1CC1C1CN(c2cncc(OC[C@H]3CC[C@H](C(F)(F)F)CC3)c2)CCO1 (single isomer, unassigned) [Example 19-3] | 5 nM
O=C(O)C1CC1C1CN(c2cncc(OC[C@H]3CC[C@H](C(F)(F)F)CC3)c2)CCO1 (single isomer, unassigned) [Example 19-4] | 49 nM
